Experimental data taken from US8101373B2, “β-galactosidase donor fragments” (Discoverx Corporation, priority 2007, dated 2012).

By UniProt entry, the sequences of proteins in these tests, tags left out.
UniProt P41968, whole entry, species assumed: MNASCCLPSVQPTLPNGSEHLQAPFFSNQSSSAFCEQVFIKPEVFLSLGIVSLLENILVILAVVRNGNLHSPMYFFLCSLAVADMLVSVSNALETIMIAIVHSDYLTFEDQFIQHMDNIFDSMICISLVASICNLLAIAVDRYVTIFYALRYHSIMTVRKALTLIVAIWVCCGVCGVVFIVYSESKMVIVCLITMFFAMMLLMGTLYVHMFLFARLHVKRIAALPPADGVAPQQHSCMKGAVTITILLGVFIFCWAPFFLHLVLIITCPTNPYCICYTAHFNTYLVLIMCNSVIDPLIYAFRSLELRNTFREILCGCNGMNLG

Biological target: T1, MC3R (Homo sapiens, UniProt P41968)
T1 construct: The entire GPCR coding regions were cloned downstream of the CMV promoter and upstream of the ED; expressed in transfected cells; host or cells: HEK293 or CHOK1 cells, retroviral infection (pLNCX2)
Test: PathHunter β-arrestin2-EA / GPCR-ED enzyme fragment complementation, MC3R-ED fusion
Type: cell-based
Conditions: saturating ligand
Description: The following are the directions for performing the determinations of the response to inducing agents and comparing the prior art ED (pK1) to an ED of the subject invention (pK2):
The cells used were HEK293 and CHOK1 cells. Following substantially the procedures described in U.S. patent application Ser. No. 10/229,247, filed Aug. 27, 2002, and U.S. patent application Ser. No. 11/132,764 (Publication no. 2005/0287522), filed May 18, 2005, whose disclosures are specifically incorporated by reference, each of the cell lines was infected with retroviral constructs. The viral plasmid was the PLNCX2 vector from Clontech. The plasmid includes sufficient retroviral sequences to enable viral production in the appropriate packaging cell lines. The plasmid also includes the neomycin antibiotic resistance gene and a CMV promoter that is used to drive expression of the target ED fusion. […] The ED is fused at the intracellular terminus, i.e., C-terminus of the proteins.
Preparation of Detection Reagents—The detection reagents must be prepared as a working solution prior to use, and once prepared are stable for at least 24 hours at room temperature with no impact on assay performance. The detection reagents consist of the substrate and co-factors for chemiluminescence signal detection, as well as the reagents necessary for selective cell permeabilization. […]

## aMSH
MC3R fused to PK1 ED
  Fold induct.: none
MC3R fused to PK2 ED
  Fold induct.: 3.2 fold
